From US20240108738A1, “BICYCLIC PEPTIDE LIGANDS SPECIFIC FOR NK CELLS” (Bicycle Tx Limited, priority 2021, published 2024)

Amino acid sequences for entries named in this document (tags omitted). Residues count along the entry.
UniProt P08637, 17-208 F176V: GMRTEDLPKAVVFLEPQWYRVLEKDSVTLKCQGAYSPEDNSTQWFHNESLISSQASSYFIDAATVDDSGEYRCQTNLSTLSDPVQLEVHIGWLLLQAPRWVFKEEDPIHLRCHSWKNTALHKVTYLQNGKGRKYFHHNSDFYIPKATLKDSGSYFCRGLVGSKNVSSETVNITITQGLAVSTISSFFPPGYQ
UniProt P08637, 17-208 limits assumed: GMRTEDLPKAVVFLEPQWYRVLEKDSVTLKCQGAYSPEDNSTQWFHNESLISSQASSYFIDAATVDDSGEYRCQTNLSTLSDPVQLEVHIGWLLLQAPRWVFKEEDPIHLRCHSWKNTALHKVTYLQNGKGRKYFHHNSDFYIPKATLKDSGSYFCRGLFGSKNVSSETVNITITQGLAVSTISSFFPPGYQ

Tests used:
CD16a (V Variant) = CD16a (V Variant) (Homo sapiens, UniProt P08637, F176V); experiment: FcγRIII (CD16a) SPR (Method A and/or Method B), V variant; assay type: binding
CD16a (F Variant) = CD16a (F Variant) (Homo sapiens, UniProt P08637); experiment: FcγRIII (CD16a) SPR (Method A and/or Method B), F variant; assay type: binding

CC[C@H](C)[C@@H]1NC(=O)[C@H](Cc2c[nH]c3ccccc23)NC(=O)[C@H](CCSC)NC(=O)[C@@H](NC(=O)[C@H](C)N)CSCc2nc3nc(n2)CSC[C@H](NC(=O)[C@@H]2CCCN2C(=O)[C@H](CC(=O)O)NC(=O)[C@H](CO)NC(=O)[C@H](CCCNC(=N)N)NC1=O)C(=O)NCC(=O)N[C@@H](C)C(=O)N[C@@H](Cc1c[nH]c2ccccc12)C(=O)N[C@H](C(=O)N[C@@H](C)C(N)=O)CSC3 [BCY19032, A-(SEQ ID NO: 181)-A]
Kd (CD16a (V Variant)): 4.64 µM
Kd (CD16a (F Variant)): 10.5 µM

CC[C@H](C)[C@@H]1NC(=O)[C@H](Cc2c[nH]cn2)NC(=O)[C@H](Cc2c[nH]c3ccccc23)NC(=O)[C@H](CCC(=O)O)NC(=O)[C@@H](NC(=O)[C@H](C)N)CSCc2nc3nc(n2)CSC[C@H](NC(=O)[C@@H]2CCCN2C(=O)[C@H](CCC(=O)O)NC(=O)[C@H](CO)NC1=O)C(=O)NCC(=O)N[C@@H](C)C(=O)N[C@@H](Cc1c[nH]c2ccccc12)C(=O)N[C@H](C(=O)N[C@@H](C)C(N)=O)CSC3 [BCY19034, A-(SEQ ID NO: 183)-A]
Kd (CD16a (V Variant)): 1.08 µM
Kd (CD16a (F Variant)): 1.81 µM

CC[C@H](C)[C@@H]1NC(=O)[C@H](Cc2c[nH]c3ccccc23)NC(=O)[C@H](CCSC)NC(=O)[C@@H](NC(=O)[C@H](C)N)CSCc2nc3nc(n2)CSC[C@H](NC(=O)[C@@H]2CCCN2C(=O)[C@H](CC(=O)O)NC(=O)[C@H](CO)NC(=O)[C@H](CCCNC(=N)N)NC1=O)C(=O)NCC(=O)N[C@@H](C)C(=O)N[C@@H](Cc1c[nH]c2ccccc12)C(=O)N[C@H](C(=O)N[C@@H](C)C(=O)NCC(=O)N[C@@H](C)C(=O)N[C@@H](C)C(=O)N[C@@H](C)C(=O)N[C@@H](CCC(=O)O)C(N)=O)CSC3 [BCY19038, A-(SEQ ID NO: 187)-AGAAAE]
Kd (CD16a (V Variant)): 6.85 µM
Kd (CD16a (F Variant)): > 10 µM

CC(C)[C@@H]1NC(=O)[C@H](CO)NC(=O)[C@H](Cc2c[nH]c3ccccc23)NC(=O)[C@H](CCCNC(=N)N)NC(=O)[C@@H](NC(=O)[C@H](C)N)CSCc2nc3nc(n2)CSC[C@H](NC(=O)[C@@H]2CCCN2C(=O)[C@H](CC(=O)O)NC(=O)[C@H](CCC(=O)O)NC1=O)C(=O)NCC(=O)N[C@@H](C)C(=O)N[C@@H](Cc1c[nH]c2ccccc12)C(=O)N[C@H](C(=O)N[C@@H](C)C(=O)NCC(=O)N[C@@H](C)C(=O)N[C@@H](C)C(=O)N[C@@H](C)C(=O)N[C@@H](CCC(=O)O)C(N)=O)CSC3 [BCY19040, A-(SEQ ID NO: 61)-AGAAAE]
Kd (CD16a (V Variant)): 1.24 µM
Kd (CD16a (F Variant)): 1.6 µM

CC[C@H](C)[C@@H]1NC(=O)[C@H](Cc2c[nH]cn2)NC(=O)[C@H](Cc2c[nH]c3ccccc23)NC(=O)[C@H](CCC(=O)O)NC(=O)[C@@H](NC(=O)[C@H](C)N)CSCc2nc3nc(n2)CSC[C@H](NC(=O)[C@@H]2CCCN2C(=O)[C@H](CCC(=O)O)NC(=O)[C@H](CO)NC1=O)C(=O)NCC(=O)N[C@@H](C)C(=O)N[C@@H](Cc1c[nH]c2ccccc12)C(=O)N[C@H](C(=O)N[C@@H](C)C(=O)NCC(=O)N[C@@H](C)C(=O)N[C@@H](C)C(=O)N[C@@H](C)C(=O)N[C@@H](CCC(=O)O)C(N)=O)CSC3 [BCY19041, A-(SEQ ID NO: 189)-AGAAAE]
Kd (CD16a (V Variant)): 1.31 µM
Kd (CD16a (F Variant)): 1.82 µM

CC(C)[C@@H]1NC(=O)[C@H](Cc2c[nH]cn2)NC(=O)[C@H](Cc2c[nH]c3ccccc23)NC(=O)[C@H](CC(N)=O)NC(=O)[C@@H](NC(=O)[C@H](C)N)CSCc2nc3nc(n2)CSC[C@H](NC(=O)[C@@H]2CCCN2C(=O)[C@H](CCC(=O)O)NC(=O)[C@H](Cc2ccc(O)cc2)NC1=O)C(=O)NCC(=O)N[C@@H](C)C(=O)N[C@@H](Cc1c[nH]c2ccccc12)C(=O)N[C@H](C(=O)N[C@@H](C)C(=O)NCC(=O)N[C@@H](C)C(=O)N[C@@H](C)C(=O)N[C@@H](C)C(=O)N[C@@H](CCC(=O)O)C(N)=O)CSC3 [BCY19042, A-(SEQ ID NO: 190)-AGAAAE]
Kd (CD16a (V Variant)): 1.37 µM
Kd (CD16a (F Variant)): 4.27 µM

C[C@H](N)C(=O)N[C@H]1CSCc2nc3nc(n2)CSC[C@H](NC(=O)[C@@H]2CCCN2C(=O)[C@H](CCC(=O)O)NC(=O)[C@H](CO)NC(=O)[C@H](Cc2ccccc2)NC(=O)[C@H](Cc2ccc(O)cc2)NC(=O)[C@H](Cc2c[nH]c4ccccc24)NC(=O)[C@H](CCCNC(=N)N)NC1=O)C(=O)NCC(=O)N[C@@H](C)C(=O)N[C@@H](Cc1c[nH]c2ccccc12)C(=O)N[C@H](C(=O)N[C@@H](C)C(N)=O)CSC3 [BCY20364, A-(SEQ ID NO: 210)-A]
Kd (CD16a (V Variant)): 1.37 µM
Kd (CD16a (F Variant)): 4.15 µM

C[C@H](N)C(=O)N[C@H]1CSCc2nc3nc(n2)CSC[C@H](NC(=O)[C@@H]2CCCN2C(=O)[C@H](CCC(=O)O)NC(=O)[C@H](CO)NC(=O)[C@H](Cc2ccccc2)NC(=O)[C@H](CO)NC(=O)[C@H](Cc2c[nH]c4ccccc24)NC(=O)[C@H](CCCNC(=N)N)NC1=O)C(=O)NCC(=O)N[C@@H](C)C(=O)N[C@@H](Cc1c[nH]c2ccccc12)C(=O)N[C@H](C(=O)N[C@@H](C)C(N)=O)CSC3 [BCY20365, A-(SEQ ID NO: 211)-A]
Kd (CD16a (V Variant)): 3.49 µM
Kd (CD16a (F Variant)): 6.79 µM

C[C@H](N)C(=O)N[C@H]1CSCc2nc3nc(n2)CSC[C@H](NC(=O)[C@@H]2CCCN2C(=O)[C@H](CCC(=O)O)NC(=O)[C@H](CO)NC(=O)[C@@H]2CCCN2C(=O)[C@H](Cc2ccc(O)cc2)NC(=O)[C@H](Cc2c[nH]c4ccccc24)NC(=O)[C@H](CCCNC(=N)N)NC1=O)C(=O)NCC(=O)N[C@@H](C)C(=O)N[C@@H](Cc1c[nH]c2ccccc12)C(=O)N[C@H](C(=O)N[C@@H](C)C(N)=O)CSC3 [BCY20367, A-(SEQ ID NO: 213)-A]
Kd (CD16a (V Variant)): 0.473 µM
Kd (CD16a (F Variant)): 1.67 µM

C[C@H](N)C(=O)N[C@H]1CSCc2nc3nc(n2)CSC[C@H](NC(=O)[C@@H]2CCCN2C(=O)[C@H](CCC(=O)O)NC(=O)[C@H](CC(=O)O)NC(=O)[C@@H]2CCCN2C(=O)[C@H](Cc2c[nH]cn2)NC(=O)[C@H](Cc2c[nH]c4ccccc24)NC(=O)[C@H](CCCNC(=N)N)NC1=O)C(=O)NCC(=O)N[C@@H](C)C(=O)N[C@@H](Cc1c[nH]c2ccccc12)C(=O)N[C@H](C(=O)N[C@@H](C)C(N)=O)CSC3 [BCY20368, A-(SEQ ID NO: 214)-A]
Kd (CD16a (V Variant)): 0.531 µM
Kd (CD16a (F Variant)): 1.43 µM

C[C@H](N)C(=O)N[C@H]1CSCc2nc3nc(n2)CSC[C@H](NC(=O)[C@@H]2CCCN2C(=O)[C@H](CCC(=O)O)NC(=O)[C@H](CC(=O)O)NC(=O)[C@H](Cc2ccccc2)NC(=O)[C@H](Cc2c[nH]cn2)NC(=O)[C@H](Cc2c[nH]c4ccccc24)NC(=O)[C@H](CCCNC(=N)N)NC1=O)C(=O)NCC(=O)N[C@@H](C)C(=O)N[C@@H](Cc1c[nH]c2ccccc12)C(=O)N[C@H](C(=O)N[C@@H](C)C(N)=O)CSC3 [BCY20370, A-(SEQ ID NO: 216)-A]
Kd (CD16a (V Variant)): 0.639 µM
Kd (CD16a (F Variant)): 1.27 µM

C[C@H](N)C(=O)N[C@H]1CSCc2nc3nc(n2)CSC[C@H](NC(=O)[C@@H]2CCCN2C(=O)[C@H](CC(=O)O)NC(=O)[C@H](CC(=O)O)NC(=O)[C@H](Cc2ccccc2)NC(=O)[C@H](Cc2c[nH]cn2)NC(=O)[C@H](Cc2c[nH]c4ccccc24)NC(=O)[C@H](CCCNC(=N)N)NC1=O)C(=O)NCC(=O)N[C@@H](C)C(=O)N[C@@H](Cc1c[nH]c2ccccc12)C(=O)N[C@H](C(=O)N[C@@H](C)C(N)=O)CSC3 [BCY20371, A-(SEQ ID NO: 217)-A]
Kd (CD16a (V Variant)): 1.8 µM
Kd (CD16a (F Variant)): 2.15 µM
